## Ab-14 heavy chain CDR variants: yeast mating affinities

Target: peptide PDVDLGDISGINAS, taken from heptad repeat 2 (HR2) of SARS-CoV-2 spike.

Parent scFv Ab-14: VH joined to VL by three GGGGS repeats. Changes lie in the heavy chain CDRs alone.
VH: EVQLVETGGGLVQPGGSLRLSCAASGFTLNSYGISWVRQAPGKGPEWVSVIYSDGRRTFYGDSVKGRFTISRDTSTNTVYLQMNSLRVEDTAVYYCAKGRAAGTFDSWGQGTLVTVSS
VL: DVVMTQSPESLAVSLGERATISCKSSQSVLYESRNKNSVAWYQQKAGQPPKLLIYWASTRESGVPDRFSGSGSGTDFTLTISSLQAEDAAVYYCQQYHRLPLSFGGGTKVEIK

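These sequences belong to a second round, designed from the earlier measurements on random variants of the parent. Group labels follow the data file (Ctrl: baseline library sampled from a position-specific scoring matrix, with some repeated check sequences; Rand: our label for a block that the file lists under HC and that is probably the random mutants of the ten best first-round binders; GP: Gaussian process model; GPLM: also part of the Gaussian process libraries; HC: hill climbing; Gen: genetic algorithm; Gibbs: Gibbs sampling; a sequence that several methods proposed may carry one label only). The scFvs were displayed on barcoded MATa yeast, the peptide on MATalpha yeast. Pairs that bind mate more often; barcode pairs of the diploids are counted by sequencing. Scores were corrected for input abundance and mapped to Kd with protein pairs of known affinity run in the same pool. Mating was done six times.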

Each variant's VH is given in full.
This list holds designs with at most six substitutions.
Numbers give log10(Kd / nM), so 0 is 1 nM and 3 is 1 µM. Smaller is tighter.
A mean of the replicates is given; it leaves out those without a signal.
"nd" means that the variant was in the library but no mating with the target was seen in any replicate; the authors take this as a sign of poor binding, and no number exists.
Order: sorted from the lowest average up, undetected variants last.

With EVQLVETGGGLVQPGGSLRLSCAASGFDLNSYGISWVRQAPGKGPEWVSVIYSDGRRTFYADDVKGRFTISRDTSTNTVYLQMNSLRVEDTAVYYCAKGRTAGTFDSWGQGTLVTVSS [GP_Gen] the result was -0.11 (6 of 6 replicates; controls 0 of 18). With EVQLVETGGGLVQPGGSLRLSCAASGFELNDYGISWVRQAPGKGPEWVSVIYSDGRRTFYGDSVKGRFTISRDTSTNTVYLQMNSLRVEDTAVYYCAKGRTAGTFDTWGQGTLVTVSS [GPLM_Gen] the result was 0.06 (6 of 6 replicates; controls 0 of 18). Variant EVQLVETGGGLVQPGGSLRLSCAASGFELNSYGISWVRQAPGKGPEWVSVIYSDGRRTFYADSVKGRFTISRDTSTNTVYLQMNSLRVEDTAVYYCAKGKLAGTFDSWGQGTLVTVSS [GPLM_Gibbs] showed 0.10 (5 of 6 replicates; controls 0 of 18). Variant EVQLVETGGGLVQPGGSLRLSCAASGFELNEYGISWVRQAPGKGPEWVSVIYSDGRRTFYADSVKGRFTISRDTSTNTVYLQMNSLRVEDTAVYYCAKGRNAGTFDSWGQGTLVTVSS [GP_Gen] gave 0.19 (6 of 6 replicates; controls 0 of 18). For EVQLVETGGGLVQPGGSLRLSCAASGFELNSYGISWVRQAPGKGPEWVSVIYSDGRRTFYGDSVKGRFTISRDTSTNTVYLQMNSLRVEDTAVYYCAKGKTAGTFDLWGQGTLVTVSS [GP_Gen], the assay gave 0.33 (6 of 6 replicates; controls 0 of 18). With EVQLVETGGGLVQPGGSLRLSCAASGFDLNSYGISWVRQAPGKGPEWVSVIYSDGRRTFYQDSVKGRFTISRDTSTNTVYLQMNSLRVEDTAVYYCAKGRTAGTFDTWGQGTLVTVSS [GP_Gen] the result was 0.45 (6 of 6 replicates; controls 0 of 18).

Variant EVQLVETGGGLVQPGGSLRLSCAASGFTLNSYGISWVRQAPGKGPEWVSVIYSDGRRTFYTDSVKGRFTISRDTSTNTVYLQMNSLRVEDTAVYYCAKGEVAGTFDSWGQGTLVTVSS [GP_HC] gave 0.53 (6 of 6 replicates; controls 0 of 18). Variant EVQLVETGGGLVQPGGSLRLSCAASGFELNDYGISWVRQAPGKGPEWVSVIYSDGRRTFYGDAVKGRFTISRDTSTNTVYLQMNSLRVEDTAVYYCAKGKTAGTFDSWGQGTLVTVSS [GP_Gibbs] gave 0.63 (6 of 6 replicates; controls 0 of 18). Variant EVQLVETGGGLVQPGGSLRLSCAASGFRLNEYGISWVRQAPGKGPEWVSVIYSDGRRTFYGDSVKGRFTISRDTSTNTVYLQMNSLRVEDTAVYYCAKGRMAGTFDSWGQGTLVTVSS [GP_Gibbs] gave 0.79 (6 of 6 replicates; controls 0 of 18). For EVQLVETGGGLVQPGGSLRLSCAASGFYLNEYGISWVRQAPGKGPEWVSVIYSDGRRTFYGDSVKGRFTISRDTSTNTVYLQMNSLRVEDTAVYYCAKGRHAGTFDSWGQGTLVTVSS [GPLM_Gen], the assay gave 1.31 (6 of 6 replicates; controls 0 of 18). For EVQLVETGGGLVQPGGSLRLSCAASGFTLNSYGISWVRQAPGKGPEWVSVIYSDGRRTFYTDSVKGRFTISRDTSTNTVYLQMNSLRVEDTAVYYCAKGLFAGTFDSWGQGTLVTVSS [GP_HC], the assay gave 1.65 (5 of 6 replicates; controls 0 of 18). For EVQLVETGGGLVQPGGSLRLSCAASGFTLNEYGISWVRQAPGKGPEWVSVIYSDGRRTFYPDSVKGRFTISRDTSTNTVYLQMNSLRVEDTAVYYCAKGRFAGTFDDWGQGTLVTVSS [Rand], the assay gave 2.18 (3 of 6 replicates; controls 1 of 18).

Variant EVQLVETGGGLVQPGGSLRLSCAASGFTLDSYGISWVRQAPGKGPEWVSVIYSDGRFTFYGDSVKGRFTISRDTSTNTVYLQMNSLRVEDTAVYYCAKGRGAGTALSWGQGTLVTVSS [Rand] showed nd (0 of 6 replicates; controls 0 of 18). Variant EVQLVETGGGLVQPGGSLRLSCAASGFTLESYGISWVRQAPGKGPEWVSVIYSDGRRTFYGDDVKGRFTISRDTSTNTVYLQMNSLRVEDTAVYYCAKGTAAGTFDSWGQGTLVTVSS [Ctrl] gave nd (0 of 6 replicates; controls 0 of 18). Variant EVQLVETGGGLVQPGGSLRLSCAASGFTLNSYGISWVRQAPGKGPEWVSVIYSDGKRTFYGDRVKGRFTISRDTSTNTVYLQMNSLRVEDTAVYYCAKGRTAGTFDSWGQGTLVTVSS [GP_Gen] gave nd (0 of 6 replicates; controls 0 of 18). Variant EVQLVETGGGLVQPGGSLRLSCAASGFTLNSYGISWVRQAPGKGPEWVSVIYSDGIRTFYGGSVKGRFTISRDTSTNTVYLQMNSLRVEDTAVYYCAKGRAAGTFDSWGQGTLVTVSS [Ctrl] showed nd (0 of 6 replicates; controls 1 of 18).

As a blank, each scFv also met three strains without target: over all heavy chain designs, 1% of these pairings were detected, typically at 2.08 and seldom below 0.84. Also given: how often the same scFv was detected with the empty control strains.
The authors' rule: three or more of the six replicates give a measured affinity, fewer mean a poor binder.
The parent sequence was in this pool as ten entries: three were never detected, three once, and four in most replicates, with averages from 0.34 to 2.37.
Values of this round are not directly comparable with the first-round values of the same sequences.

From the AlphaSeq antibody data of Li et al. 2023 (doi:10.1038/s41467-023-39022-2), copy in the FLAb collection.